Assay results from patent US20240207247A1, “METHODS FOR THE COMBINED ADMINISTRATION OF DEUTETRABENAZINE AND A CYP2D6 INHIBITOR” (Neurocrine Biosciences, Inc., priority 2021, published 2024).

By UniProt entry, the sequences of proteins in these tests, tags left out.
UniProt Q05940, whole entry: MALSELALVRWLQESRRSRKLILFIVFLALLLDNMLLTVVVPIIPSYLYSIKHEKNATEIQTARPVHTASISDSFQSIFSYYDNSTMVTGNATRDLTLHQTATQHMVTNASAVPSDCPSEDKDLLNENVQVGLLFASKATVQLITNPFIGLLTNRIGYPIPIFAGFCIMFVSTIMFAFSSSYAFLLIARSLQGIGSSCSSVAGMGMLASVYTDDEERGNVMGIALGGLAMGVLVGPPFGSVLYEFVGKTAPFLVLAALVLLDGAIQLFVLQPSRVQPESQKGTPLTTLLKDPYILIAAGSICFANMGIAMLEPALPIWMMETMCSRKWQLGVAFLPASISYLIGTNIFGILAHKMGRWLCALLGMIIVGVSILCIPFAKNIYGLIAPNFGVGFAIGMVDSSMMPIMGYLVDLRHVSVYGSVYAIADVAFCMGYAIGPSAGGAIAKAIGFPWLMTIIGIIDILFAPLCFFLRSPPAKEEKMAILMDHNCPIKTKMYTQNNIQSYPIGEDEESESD

Target: VMAT2 (Homo sapiens, UniProt Q05940)
Test: VMAT2 competitive radioligand binding assay
Description: Assays were performed under conditions described in the accompanying “Methods” section of this report. Where presented, IC50 values were determined by a non-linear, least squares regression analysis using MathIQ™ (ID Business Solutions Ltd., UK). […] Where presented, the Hill coefficient (nH), defining the slope of the competitive binding curve, was calculated using MathIQ™.

## [2H]C([2H])([2H])Oc1cc2c(cc1OC([2H])([2H])[2H])[C@@H]1C[C@H](O)[C@@H](CC(C)C)CN1CC2 [[−]-α-DHTBZ, (−)-α-3-isobutyl-9,10-di(methoxy-d3)-1,3,4,6,7,11b-hexahydro-2H-pyrido[2,1-a]isoquinolin-2-ol]
  VMAT2 inhibition in vitro (in words): inactive

## [2H]C([2H])([2H])Oc1cc2c(cc1OC([2H])([2H])[2H])[C@@H]1C[C@@H](O)[C@@H](CC(C)C)CN1CC2 [[−]-β-DHTBZ, (−) -β-3-isobutyl-9,10-di(methoxy-d3)-1,3,4,6,7,11b-hexahydro-2H-pyrido[2,1-a]isoquinolin-2-ol]
  VMAT2 inhibition in vitro (in words): inactive
